Usually IC50 stands for the concentration at which inhibition is half-maximal.

Chains of the proteins cited; added tags and fusions are not shown.
UniProt P23458, whole entry: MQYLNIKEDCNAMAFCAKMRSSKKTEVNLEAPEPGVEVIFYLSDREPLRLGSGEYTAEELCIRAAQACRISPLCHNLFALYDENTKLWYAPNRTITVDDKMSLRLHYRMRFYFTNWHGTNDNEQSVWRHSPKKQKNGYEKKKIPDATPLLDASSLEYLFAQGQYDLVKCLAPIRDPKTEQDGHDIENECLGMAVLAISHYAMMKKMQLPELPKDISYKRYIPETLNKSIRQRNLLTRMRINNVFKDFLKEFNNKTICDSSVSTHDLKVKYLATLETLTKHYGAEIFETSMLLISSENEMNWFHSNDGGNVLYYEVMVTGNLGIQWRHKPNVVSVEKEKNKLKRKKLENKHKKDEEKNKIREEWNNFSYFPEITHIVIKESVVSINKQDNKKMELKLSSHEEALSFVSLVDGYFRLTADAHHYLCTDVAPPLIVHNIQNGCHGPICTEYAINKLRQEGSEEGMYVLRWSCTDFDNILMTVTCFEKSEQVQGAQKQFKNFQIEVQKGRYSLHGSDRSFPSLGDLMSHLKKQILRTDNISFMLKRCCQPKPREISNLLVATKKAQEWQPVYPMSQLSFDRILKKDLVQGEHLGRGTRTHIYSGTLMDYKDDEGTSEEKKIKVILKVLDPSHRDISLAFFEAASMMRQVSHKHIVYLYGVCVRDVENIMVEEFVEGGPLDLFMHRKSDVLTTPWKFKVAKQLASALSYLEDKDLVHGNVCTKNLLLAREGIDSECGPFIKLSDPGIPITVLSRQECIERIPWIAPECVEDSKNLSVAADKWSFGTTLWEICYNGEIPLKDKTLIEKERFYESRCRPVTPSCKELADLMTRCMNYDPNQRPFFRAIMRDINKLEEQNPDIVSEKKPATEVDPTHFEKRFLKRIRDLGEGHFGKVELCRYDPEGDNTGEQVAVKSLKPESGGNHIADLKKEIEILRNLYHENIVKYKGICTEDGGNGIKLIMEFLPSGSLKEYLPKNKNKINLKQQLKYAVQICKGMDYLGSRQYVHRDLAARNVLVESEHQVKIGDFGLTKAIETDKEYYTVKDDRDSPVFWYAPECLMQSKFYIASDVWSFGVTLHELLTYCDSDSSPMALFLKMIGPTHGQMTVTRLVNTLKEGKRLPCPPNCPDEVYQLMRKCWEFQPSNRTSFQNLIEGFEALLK
UniProt O60674, whole entry: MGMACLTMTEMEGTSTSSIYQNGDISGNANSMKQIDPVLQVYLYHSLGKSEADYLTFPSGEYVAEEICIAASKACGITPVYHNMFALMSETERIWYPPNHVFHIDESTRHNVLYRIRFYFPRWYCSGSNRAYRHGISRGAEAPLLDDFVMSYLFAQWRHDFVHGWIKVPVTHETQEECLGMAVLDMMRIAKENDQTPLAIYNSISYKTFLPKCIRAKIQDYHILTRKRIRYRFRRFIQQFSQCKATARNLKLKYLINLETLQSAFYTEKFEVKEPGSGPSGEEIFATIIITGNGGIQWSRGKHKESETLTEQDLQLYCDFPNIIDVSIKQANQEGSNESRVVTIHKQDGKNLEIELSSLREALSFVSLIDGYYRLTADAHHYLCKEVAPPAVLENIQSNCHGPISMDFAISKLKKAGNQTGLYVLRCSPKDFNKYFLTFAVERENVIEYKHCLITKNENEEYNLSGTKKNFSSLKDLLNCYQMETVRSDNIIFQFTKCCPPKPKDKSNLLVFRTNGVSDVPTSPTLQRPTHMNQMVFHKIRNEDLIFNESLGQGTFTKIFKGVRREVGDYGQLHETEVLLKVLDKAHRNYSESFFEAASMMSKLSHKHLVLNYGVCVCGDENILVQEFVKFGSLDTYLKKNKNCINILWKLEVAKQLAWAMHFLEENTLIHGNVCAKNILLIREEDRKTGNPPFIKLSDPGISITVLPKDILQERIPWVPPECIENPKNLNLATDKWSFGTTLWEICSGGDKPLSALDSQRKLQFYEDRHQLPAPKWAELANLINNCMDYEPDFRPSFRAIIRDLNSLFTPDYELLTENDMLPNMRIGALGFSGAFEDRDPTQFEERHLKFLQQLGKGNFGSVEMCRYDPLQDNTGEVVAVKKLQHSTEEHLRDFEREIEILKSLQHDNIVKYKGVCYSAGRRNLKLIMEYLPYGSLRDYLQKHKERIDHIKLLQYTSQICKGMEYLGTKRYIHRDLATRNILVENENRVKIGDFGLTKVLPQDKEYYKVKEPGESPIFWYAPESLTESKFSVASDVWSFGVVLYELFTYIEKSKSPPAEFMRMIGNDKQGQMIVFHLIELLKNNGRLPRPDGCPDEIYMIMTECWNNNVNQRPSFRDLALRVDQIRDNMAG
UniProt P52333, whole entry: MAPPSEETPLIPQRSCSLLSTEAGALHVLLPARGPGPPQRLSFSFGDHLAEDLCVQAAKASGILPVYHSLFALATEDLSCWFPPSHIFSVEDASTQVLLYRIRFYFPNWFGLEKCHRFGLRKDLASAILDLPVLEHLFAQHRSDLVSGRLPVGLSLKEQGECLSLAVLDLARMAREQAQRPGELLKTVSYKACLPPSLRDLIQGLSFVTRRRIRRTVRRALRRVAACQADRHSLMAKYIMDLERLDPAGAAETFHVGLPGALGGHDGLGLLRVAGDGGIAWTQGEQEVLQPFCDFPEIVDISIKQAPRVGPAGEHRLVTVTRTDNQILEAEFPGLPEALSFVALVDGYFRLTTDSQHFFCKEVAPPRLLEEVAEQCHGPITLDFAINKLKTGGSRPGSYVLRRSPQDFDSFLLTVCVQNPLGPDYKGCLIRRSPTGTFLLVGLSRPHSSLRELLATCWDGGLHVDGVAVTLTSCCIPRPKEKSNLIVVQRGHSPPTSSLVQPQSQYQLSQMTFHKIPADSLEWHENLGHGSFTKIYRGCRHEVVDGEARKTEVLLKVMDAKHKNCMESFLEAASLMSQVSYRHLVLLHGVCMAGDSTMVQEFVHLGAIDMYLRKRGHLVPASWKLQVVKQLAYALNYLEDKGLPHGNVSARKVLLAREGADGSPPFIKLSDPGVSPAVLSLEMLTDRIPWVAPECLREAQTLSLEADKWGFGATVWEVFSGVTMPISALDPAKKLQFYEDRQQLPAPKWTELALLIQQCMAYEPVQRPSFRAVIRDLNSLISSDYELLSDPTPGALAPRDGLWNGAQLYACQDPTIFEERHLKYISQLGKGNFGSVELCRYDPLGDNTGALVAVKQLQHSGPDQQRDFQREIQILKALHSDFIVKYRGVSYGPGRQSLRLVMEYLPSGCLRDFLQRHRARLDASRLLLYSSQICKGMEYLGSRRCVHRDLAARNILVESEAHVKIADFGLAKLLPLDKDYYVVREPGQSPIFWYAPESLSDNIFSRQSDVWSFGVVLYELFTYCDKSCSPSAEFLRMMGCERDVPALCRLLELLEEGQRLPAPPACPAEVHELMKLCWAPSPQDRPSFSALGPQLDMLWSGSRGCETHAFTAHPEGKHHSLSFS
UniProt P29597, whole entry: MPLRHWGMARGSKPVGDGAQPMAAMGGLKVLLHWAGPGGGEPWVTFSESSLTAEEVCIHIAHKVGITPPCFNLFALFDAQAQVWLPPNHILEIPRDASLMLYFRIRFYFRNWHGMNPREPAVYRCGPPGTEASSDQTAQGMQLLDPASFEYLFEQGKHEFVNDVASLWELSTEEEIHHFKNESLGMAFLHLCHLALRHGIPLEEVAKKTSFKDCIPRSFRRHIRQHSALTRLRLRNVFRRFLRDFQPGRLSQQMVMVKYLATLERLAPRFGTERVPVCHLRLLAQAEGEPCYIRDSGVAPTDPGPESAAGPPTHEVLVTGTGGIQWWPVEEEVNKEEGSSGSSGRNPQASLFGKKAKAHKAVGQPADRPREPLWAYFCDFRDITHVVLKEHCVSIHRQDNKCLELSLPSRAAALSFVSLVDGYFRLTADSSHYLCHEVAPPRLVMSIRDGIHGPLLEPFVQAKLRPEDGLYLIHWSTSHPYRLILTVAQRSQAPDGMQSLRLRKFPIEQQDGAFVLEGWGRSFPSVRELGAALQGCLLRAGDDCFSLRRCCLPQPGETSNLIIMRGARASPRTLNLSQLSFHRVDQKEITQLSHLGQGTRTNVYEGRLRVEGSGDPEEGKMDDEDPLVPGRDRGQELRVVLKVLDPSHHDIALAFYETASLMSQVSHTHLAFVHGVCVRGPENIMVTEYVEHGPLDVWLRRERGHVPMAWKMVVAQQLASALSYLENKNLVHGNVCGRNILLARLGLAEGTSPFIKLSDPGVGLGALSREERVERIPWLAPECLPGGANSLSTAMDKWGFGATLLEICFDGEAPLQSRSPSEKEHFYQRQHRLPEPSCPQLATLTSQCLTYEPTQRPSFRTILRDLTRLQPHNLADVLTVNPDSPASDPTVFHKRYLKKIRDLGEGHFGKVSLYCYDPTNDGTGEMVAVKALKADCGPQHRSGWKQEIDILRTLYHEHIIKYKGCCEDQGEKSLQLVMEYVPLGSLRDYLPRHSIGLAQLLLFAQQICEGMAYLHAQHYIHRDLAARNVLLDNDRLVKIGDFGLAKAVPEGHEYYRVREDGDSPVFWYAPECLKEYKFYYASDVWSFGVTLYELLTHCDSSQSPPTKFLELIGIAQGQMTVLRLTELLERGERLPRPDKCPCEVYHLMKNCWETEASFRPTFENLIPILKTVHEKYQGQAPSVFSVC

In US11427581B2, “JAK inhibitor and use thereof” (ZHUHAI UNITED LABORATORIES CO., LTD., priority 2018, dated 2022) one finds IC50 data, which are given here for 2 compounds.

For test [1], the target named is JAK1 (h) (Homo sapiens (Human), UniProt P23458). The test can be described thus: In vitro activity assay of JAK1 kinase (radiometric 33P-ATP, Eurofins). The class given is biochemical. To be noted: read-out: JAK1 (IC50); recombinant human JAK1.
Test [2] has as its target JAK2 (h) (Homo sapiens (Human), UniProt O60674). Description: In vitro activity assay of JAK2 kinase (radiometric 33P-ATP, Eurofins). To be noted: read-out: JAK2 (IC50); recombinant human JAK2. The class given is biochemical.
For test [3], the target named is JAK3 (h) (Homo sapiens (Human), UniProt P52333). Description: In vitro activity assay of JAK3 kinase (radiometric 33P-ATP, Eurofins). The settings on record: read-out: JAK3 (IC50); recombinant human JAK3.
Test [4] has as its target TYK2 (h) (Homo sapiens (Human), UniProt P29597). Description: In vitro activity assay of TYK2 kinase (radiometric 33P-ATP, Eurofins). To be noted: read-out: TYK2 (IC50); recombinant human TYK2.

Consider `O=C(Nc1nc2cccc(C3=CCN(C(=O)C4(F)CC4)CC3)n2n1)C1CC1`, for which the IC50 in test [1] stood at 132 nM; in test [2], 671 nM; in test [3], 4380 nM; in test [4], 462 nM.

Turning to `O=C(Nc1nc2nccc([C@H]3CC[C@H](NC(=O)C4CC4(F)F)CC3)c2s1)C1CC1` (some centres unmarked), the IC50 turned out to be 145 nM in test [1], 259 nM in test [2], 1170 nM in test [3] and 835 nM in test [4].
